Reference: US7413873

Key:
full length TCF4 = assay: cell-based or functional assay
full length TCF1 = assay: cell-based or functional assay

activation of luciferase reporter gene driven by the LEF1 promoter (-672, +305), co-transfection in 2017 T lymphocytes (full length TCF4): 4.6 fold | fold activation of LEF1 promoter luciferase reporter over 5 replicate experiments (full length TCF4): 5.6 fold | fold activation of LEF1 promoter luciferase reporter over 5 replicate experiments (full length TCF1): 8 fold
Substance: β-catenin (wild type)
